Patent publication US6911478B2, “Nitric oxide-releasing amidine- and enamine-derived diazeniumdiolates, compositions and uses thereof and method of making same” (The United States of America as represented by the …, priority 1997, dated 2005)

Test: production of NO and N2O by amidine/nitric oxide adducts, headspace chemiluminescence (NO) and gas chromatography (N2O)
Type: physicochemical
Details: pH 7.4 buffer, gas chromatography
Text: Nitrous oxide (N2O), being the end product of HNO dimerization and dehydration, provided a measure of HNO production via the equation (Nagasawa et al., J. Med. Chem. 33: 3122-3124 (1990)): [drawing 12]
This example describes the measurement of the production of NO and N2O by amidine/nitric oxide adducts.

Q: With “tetrahydrozoline bis(nitric oxide)adduct [Example 6]” as the substance, how does the “Yield N2O” value read?
A: 0.4 moles per mole cmpd
